The numbers were not newly measured in patent publication US11498903B2, “2-(1,1′-biphenyl)-1H-benzodimidazole derivatives and related compounds as apelin and APJ agonists for treating cardiovascular diseases” (BRISTOL-MYERS SQUIBB COMPANY, priority 2017, dated 2022), which cites them from elsewhere.

The conditions of the series: estimated; Japp et al. 2010; cited from earlier work.

For the substance apelin, the half-life in circulation result is given as “less than 5 minutes”.
